# According to PubChem BioAssay AID623877 (Johns Hopkins Ion Channel Center, 2012):
# Protein sequences, listed by entry. Tags and fused reporters are not part of them.
# UniProt Q8BHY3, whole entry: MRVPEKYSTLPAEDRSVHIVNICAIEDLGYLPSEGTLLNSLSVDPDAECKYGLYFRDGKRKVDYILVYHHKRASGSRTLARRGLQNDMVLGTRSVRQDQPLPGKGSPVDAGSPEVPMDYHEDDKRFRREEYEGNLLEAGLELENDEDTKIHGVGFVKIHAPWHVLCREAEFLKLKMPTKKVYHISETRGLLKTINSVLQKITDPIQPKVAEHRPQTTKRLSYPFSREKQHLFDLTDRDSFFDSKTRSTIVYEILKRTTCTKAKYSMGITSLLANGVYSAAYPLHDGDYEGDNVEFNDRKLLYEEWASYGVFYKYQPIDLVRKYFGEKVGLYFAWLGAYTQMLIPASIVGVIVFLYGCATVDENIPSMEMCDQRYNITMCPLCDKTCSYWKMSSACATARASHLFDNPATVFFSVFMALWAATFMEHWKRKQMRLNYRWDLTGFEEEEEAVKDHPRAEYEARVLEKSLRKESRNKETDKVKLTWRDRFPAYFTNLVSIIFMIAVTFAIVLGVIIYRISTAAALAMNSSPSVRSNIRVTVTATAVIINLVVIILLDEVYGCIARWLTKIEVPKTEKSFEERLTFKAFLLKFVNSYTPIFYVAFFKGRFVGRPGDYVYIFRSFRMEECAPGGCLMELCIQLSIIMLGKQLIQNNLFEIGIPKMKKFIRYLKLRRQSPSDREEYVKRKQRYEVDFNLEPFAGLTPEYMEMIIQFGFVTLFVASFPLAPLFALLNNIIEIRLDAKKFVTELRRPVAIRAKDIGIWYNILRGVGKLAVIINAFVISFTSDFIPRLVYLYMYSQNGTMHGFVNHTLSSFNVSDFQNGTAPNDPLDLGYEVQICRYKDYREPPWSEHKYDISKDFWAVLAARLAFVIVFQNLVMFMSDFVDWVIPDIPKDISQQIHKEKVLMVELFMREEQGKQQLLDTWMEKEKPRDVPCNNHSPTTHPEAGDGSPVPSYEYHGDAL
# The entries are a selection whose mix differs from that of the whole data set. Calls of active or inactive are those of the source.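 The calls were made as follows: active = fluorescence-ratio B-score plate-corrected deviation score at least 3 library SD below zero, with starting fluorescence score within 5 deviations; inactive = the rest.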
# Target: Anoctamin-1 (Mus musculus) (UniProt Q8BHY3)
# Assay: mouse ANO1 channel activation – cell-based, HTS, primary screen (AID 623877)
# Conditions: HEK293 TMEM16A/YFP-H148Q/I152L, iodide quench fluorescence; at 10 µM
row,SMILES,outcome
1,CCC(=O)N(c1ccccc1)C1(COC)CCN(CCn2nnn(CC)c2=O)CC1,inactive
2,CCC(=O)N(c1ccccc1)C1(COC)CCN(CCc2cccs2)CC1,inactive
